Conditions: room temperature, FIG. 2

time CaCO3 is kept in solution: at least 5 days
Substance: ammonium salt of glutamic acid N,N-diacetic acid (GLDA) [ammonium GLDA]
dissolution of CaCO3 (pH 3.2 to 10.2, especially at pH=3.2): able to dissolve significant quantities of CaCO3
